This data set in a line: Exposure of the solid form to 20-80% relative humidity for 7 days at room temperature. The data set is classed as physicochemical. Particulars: exposed to 20-80% RH for 7 days at room temperature.

For “Lucerastat: Salicylic acid [Lucerastat: Salicylic acid Form LC-2]”, the deliquescence result is on record as “does not deliquesce” and the polymorphic stability entry is “polymorphically stable”.

Values taken from patent US12662452B2, “Solid state forms of lucerastat and process for preparation thereof” (ASSIA CHEMICAL INDUSTRIES LTD., priority 2019, dated 2026).
